Laboratory results taken from patent US8603518B2, “Hydroxybutyrate and poly-hydroxybutyrate as components of animal feed or feed additives” (Universiteit Gent, priority 2006, dated 2013).

Test system: colon microbiota
Assay type: cell-based, human
Experimental: All incubations were performed in penicillin vials using fecal suspensions taken from the ascending vessel of the SHIME reactor running under normal feeding conditions. The feed matrix consisted of a carbohydrate-based medium containing arabinogalactan (1 g/L), pectin (2 g/L), xylan (1 g/L), starch (4.2 g/L), glucose (0.4 g/L), yeast extract (3 g/L), peptone (1 g/L), mucin (4 […]), KH2PO4 (5.3 g/L) and Na2HPO4 (1.4 g/L). […] All assays were performed in duplicate. […] 31 integrator (Thermo Separation Products, Wilrijk, Belgium). […] Microbial counts and SCFAs levels were determined as described above.

poly-3-hydroxybutyrate [PHB] was tested, and the “Microbial degradation (release of PHB degradation products)” value was “no microbial degradation occurred”.
